Data reported in the NIST ThermoML archive (doi:10.1021/je050317k).
Numbers after ± are expanded uncertainties.

Conditions: Liquid

Q: Which “vapor or sublimation pressure” value (273.1 K) does the source give for CCl [chloromethane] here?
A: 260.1 ± 2.4 kPa

Q: What about the “vapor or sublimation pressure” value (313.15 K) of the same compound?
A: 870.9 ± 5.6 kPa
